From patent US6583106B2, “Monohydric alcohol derived urethanes and their use in cosmetic formulations” (Alzo International, Inc., priority 1997, dated 2003)

Columns and labels:
[1] = Mono- and diester stability study (acid value after heat/reflux and pH variation); format: physicochemical; conditions: before treatment; A.O.C.S. T.M. #Cd 3a-63
Method: (§1) The following stability study was conducted to determine the structural stability of dimeric urethane compounds according to the present invention compared to mono- and diesters under conditions of pH and thermal variation. Because the decomposition products of the mono- and diesters are alcohol and acid, the degree of decomposition may be accurately determined by measuring the acid value. The measurable decomposition product of the urethane compound is alcohol, which is accurately measured by determining the hydroxyl value.
III. Procedure for Determining Mono- or Diester Stability
The following steps were performed on each ester sample:
(2) Into three ground glass Erlenmeyer flasks, weigh a 20 g sample of the ester.
(3) Into each flask, pipette 50 ml of a neutralized (to phenolpthalein end point) Solution of 70% Isopropanol in water. Boiling stones are added.
(4) Connect flask A to a 4-5 ft. Reflux condenser and heat so that it refluxes 1 ft. High (to approximately 80-90° C.). After connecting flasks A, B and C, proceed to step (7).
(5) Add 10% Aq. Hcl solution to adjust pH of solution in flask B to pH=2.5-3.5. See step (4).
(6) Add 20% Aq. KOH Solution to adjust pH of solution in Flask C to pH=13-14. See step (4).
(8) For each flash, A, B and C, disconnect condenser. Pour Alcoholic solution into wide diameter beaker (A, B and C). Add spin bar. […]

[2] = Urethane stability study (hydroxyl value after heat/reflux and pH variation); format: physicochemical; conditions: before treatment; A.O.C.S. hydroxyl value method
Method: as §1
IV. Procedure for Urethane Stability
The following steps were performed on each urethane sample:
(1) Run hydroxyl value test.
(2) Follow steps 2-8 for mono- and diester (above).
(3) Run hydroxyl value test on solution in beaker A.
(4) Perform step 10, from above.
(5) Run hydroxyl value test on solution in Beaker B and Beaker C.
Under conditions of this study, that is,
“A”: Product in alcoholic/water solution, heat
“B”: Product in alcoholic/water solution, heat, pH=2.5-3.5
“C”: Product in alcoholic/water solution, heat, pH=13-14

Isocetyl salicylate [ICSA]
ACID V INITIAL [1]: 0.91 mg KOH/g

Eicosanyl alcohol dimer with IPDI [Monoderm I-24]
HYDROXYL V INITIAL [2]: 9.3 mg KOH/g
